PubChem BioAssay AID602267 (Broad Institute, 2012)
The entries are a selection whose mix differs from that of the whole data set. The source made the active and inactive calls.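 How the source made its calls: active means signal falls with dose and the fitted half-maximal concentration is at or below twice the top valid tested dose; inconclusive means flat curve with 30 to 70% inhibition, or poor fit; inactive means wrong direction, flat within 30%, or potency beyond limit.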

Molecular target: Golgi-associated PDZ and coiled-coil motif-containing protein (Homo sapiens) (UniProt Q9HD26)
Experiment: blockers of CAL PDZ ligand groove binding – biochemical, fluorescence polarization, untagged CAL PDZ, cherry-pick, dose response (AID 602267)
Conditions: purified CAL PDZ, TMR-peptide fluorescence polarization, 1 h; at 50 µM (top of the series)

Compound: CC1CCNP(=O)(N(CCCl)CCCl)O1 (stereo unspecified)
- activity change, negative = inhibition: inactive
